Earlier results on one compound are cited in article PMC8792198 (Journal of pharmaceutical sciences, 2021).

This data set deals with OATP2A1. The conditions noted are these: 100 μM diclofenac, same expression system; ref 31 (Glaeser et al, 2014); cited from earlier work.

As for `O=C(O)Cc1ccccc1Nc1c(Cl)cccc1Cl` [diclofenac], the “effect on OATP2A1-mediated uptake of quercetin” value is “lack of effect”.
